Values of other authors as cited in PMC10301001, “Radiochemical and Biological Evaluation of 3p-C-NETA-ePSMA-16, a Promising PSMA-Targeting Agent for Radiotheranostics” (Pharmaceuticals, 2023).
Read-outs that look alike come from different tables or passages of the source.

Tested on: tumor
Conditions: in vivo, cited from earlier work

^205/6Bi-3p-C-NETA-trastuzumab: 3p-C-NETA-NCS conjugated with the antibody trastuzumab, labeled with 205/206Bi
blood uptake (2 h): 21.89 ± 5.9 % ID/g | Tumor uptake (24 h): 24.10 ± 4.8 % ID/g | blood uptake (24 h): 9.92 ± 2.2 % ID/g
